# Measurements as given in BindingDB's records for 26043948.
# Target: Acetylcholinesterase (Homo sapiens, UniProt P22303)
smiles,measurement,value
Cc1ccc(-c2csc(NC(=O)C[n+]3cccc(/C=N/O)c3)n2)cc1,pKd,3.84

# pKd: −log10 of the molar value.
